Consider 28 compounds from PubChem BioAssay (Tox21).

Several values for one entry are separate records, joined by “and”; a condition that tells them apart may be missing. Equal values may be shown once. The list shows a part of the results, in another mix than the full data. Some structures have more than one record in an assay (separate samples or runs), and their calls can disagree. Activity calls are given as the source filed them. Calls come from the whole dose curve; as a rule, active = well fitted cell-killing curve with a large enough effect in the repeat runs; inconclusive = weak or mixed curves, or effect the other way; inactive = flat fitted curve, though single readings scatter.
% is set by controls: 0 for no effect and ±100 for the full control effect.

The first test is described as follows: qHTS assay to identify small molecule HDAC inhibitors - cell viability counter screen (AID 1259365). Note: nearly all actives have a fitted effect of over 50% in size. The conditions noted are these: HCT-116 viability, CellTiter-Glo ATP luminescence, 2 h; at 42.5 µM (top of the series). From the text: U.S. Tox21 Program National Center for Advancing Translational Sciences [NCATS] NIH Chemical Genomics Center [NCGC] U.S. Environmental Protection Agency [EPA] National Institutes of Environmental Health Sciences [NIEHS] National Toxicology Program [NTP] U.S. Food and Drug Administration [FDA] Tox21 Assay Overview: Histone deacetylases (HDACs) are a group of epigenetic enzymes that regulate gene expression by histone deacetylation. HDACs are capable of introducing epigenetic modifications and such aberrations contribute to the onset and progression of several human diseases, thus making HDACs a popular therapeutic target. For identifying endogenous class I/II HDAC inhibitors a homogenous, luminogenic HDAC I/II cell based assay was used to measure the relative activity of class I and II HDACs from cells. Wild type HCT-116 cells were used to screen Tox21 compound libraries for identifying class I/II HDAC inhibitors.
Tox21 Assay Protocol Summary: HCT-116 cells were dispensed at 1,500 per well in 5uL of culture medium into white solid bottom 1536-well plates (Greiner Bio-One, Monroe, NC) using a Multidrop Combi (Thermo Scientific, Waltham, MA) dispenser. The assay plates were incubated at 37 C and 5% CO2 for an overnight, and then 23nL of compounds dissolved in DMSO and positive control were transferred using a Pintool station (Wako, San Diego, CA). The assay plates were incubated at 37C and 5% CO2 for 2hr. After compound treatment, 4uL of CellTiter-Glo reagent (Promega Corporation, Madison, WI) was added to each well of the assay plates using Flying Reagent Dispenser (FRD, Aurora Discovery, San Diego, CA) and incubated the assay plates at room temperature for 30min. The luminescence signal was quantified using a ViewLux plate reader (Perkin Elmer, Shelton, CT).
In the case of `NC(=O)Nc1ccc([As](=O)(O)O)cc1`, the activity change, negative = cytotoxicity is inactive: -2.38%.

Staying with this test, now noted: HCT-116 viability, CellTiter-Glo ATP luminescence, 2 h; at 92.4 µM (top of the series).
`NC(=O)Nc1ccc([As](=O)(O)O)cc1`: the activity change, negative = cytotoxicity is inactive: 0.827%.

Staying with this test, now noted: HCT-116 viability, CellTiter-Glo ATP luminescence, 2 h; at 92.4 µM (top of the series) unless noted.
For `O=[N+]([O-])c1ccc(S(=O)(=O)O)c([N+](=O)[O-])c1`, the activity change, negative = cytotoxicity was inactive: 6.47%.
Take `CCOC(=O)Cl`: the activity change, negative = cytotoxicity was inactive: -15.1%.
For `CN(N=O)C(=N)N[N+](=O)[O-]`, the activity change, negative = cytotoxicity was inactive: 1.45%.
For `CN(C(=O)Cc1ccc(Cl)c(Cl)c1)[C@H]1CC[C@@]2(CCCO2)C[C@@H]1N1CCCC1`, the activity change, negative = cytotoxicity was inactive: -0.693% [at 42.5 µM].
As to `CCCCCCCCCCCCCC[P+](CCCCCC)(CCCCCC)CCCCCC`, the activity change, negative = cytotoxicity is inactive: -11%.
Consider `CN(C(=O)Cc1cccc2occc12)[C@H]1CC[C@@]2(CCCO2)C[C@@H]1N1CCCC1`, for which the activity change, negative = cytotoxicity is inactive: -0.675%.
Turning to `COC(=O)Cl`, the activity change, negative = cytotoxicity was inactive: -0.597%.
As to `O=[N+]([O-])c1ccc([N+](=O)[O-])cc1`, the activity change, negative = cytotoxicity was inactive: -7.43%.
For the compound `O=P(Cl)(Cl)c1ccccc1`, the activity change, negative = cytotoxicity was inactive: -0.461%.
As for `CCCCOP(OCCCC)OCCCC`, the activity change, negative = cytotoxicity was inactive: -5.63%.
Still for that read-out and setting: the result for `CCCCO[P+](=O)OCCCC` reads inactive: 1.87% and inactive: -2.51%.
In the case of `CCC(C)(OOC(C)(C)C)OOC(C)(C)C`, the activity change, negative = cytotoxicity was inactive: -0.293% [at 19 µM].
Still for that read-out and setting: to `Cc1cc([N+](=O)[O-])cc([N+](=O)[O-])c1O` belongs inactive: 0.655% and inactive: -7.73%.
For `COP(=S)(Cl)OC`, the activity change, negative = cytotoxicity was inactive: -2.93%.
For `ClP(Cl)c1ccccc1`, the activity change, negative = cytotoxicity is inactive: 2.01%.
With `CC(C)OP(=S)(OC(C)C)SCCNS(=O)(=O)c1ccccc1`, the activity change, negative = cytotoxicity was inactive: 0.521%.
Regarding `O=C(Cl)OCCOC(=O)Cl`, the activity change, negative = cytotoxicity was inactive: -1.75%.
The same measure, in the same setting: the result for `O=P(Cl)(Oc1ccccc1)Oc1ccccc1` reads inactive: 3.46%; that for `O=[p+]1oc2ccccc2c2ccccc21` (centres undefined), inactive: 1.1%.
On to `CCOP(=S)(CC)Sc1ccccc1` (centres undefined), for which the activity change, negative = cytotoxicity was inactive: -12.7%.
The same measure, in the same setting: the result for `O=C(Cl)Oc1ccccc1` reads inactive: -5.55%.
On the same count and under the same terms, to `CC(C)CCCCCCCOP(OCCCCCCCC(C)C)Oc1ccccc1` belongs inactive: -11%; to `CN(C(=O)Cc1ccccc1)[C@H]1CC[C@@]2(CCCO2)C[C@@H]1N1CCCC1`, inactive: -0.0962% [at 42.5 µM].
As for `Cc1cc([N+](=O)[O-])c(O)c([N+](=O)[O-])c1`, the activity change, negative = cytotoxicity was inactive: 0.447%.
On to `CCNC(C)Cc1ccc2c(c1)OCO2` (centres undefined), for which the activity change, negative = cytotoxicity is inactive: -3.66%.
Turning to `O=[P+](Oc1ccccc1)Oc1ccccc1`, the activity change, negative = cytotoxicity is inactive: 4.17%.
As to `CCCCC(CC)CO[P+](=O)OCC(CC)CCCC` (centres undefined), the activity change, negative = cytotoxicity was inactive: 0.712%.
